According to PMC6346213, “Complex‐centric proteome profiling by SEC‐SWATH‐MS” (Molecular Systems Biology, 2019):

T1: COP9 signalosome subunit CSN8 (human (endogenous in HEK293), UniProt Q99627 1-209)
T1 construct: COP9 signalosome subunit 8 (CSN8), human; source: endogenous, HEK293 lysate
T1 sequence (looked up): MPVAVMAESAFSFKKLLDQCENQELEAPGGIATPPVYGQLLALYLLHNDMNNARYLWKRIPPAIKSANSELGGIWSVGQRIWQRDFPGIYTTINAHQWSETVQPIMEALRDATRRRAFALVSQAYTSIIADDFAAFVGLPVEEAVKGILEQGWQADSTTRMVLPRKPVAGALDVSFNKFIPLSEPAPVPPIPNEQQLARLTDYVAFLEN

B1: COP9 signalosome subunit CSN3 (natural protein, human (endogenous in HEK293), UniProt Q9UNS2 1-423, looked up)
chain: MASALEQFVNSVRQLSAQGQMTQLCELINKSGELLAKNLSHLDTVLGALDVQEHSLGVLAVLFVKFSMPSVPDFETLFSQVQLFISTCNGEHIRYATDTFAGLCHQLTNALVERKQPLRGIGILKQAIDKMQMNTNQLTSIHADLCQLCLLAKCFKPALPYLDVDMMDICKENGAYDAKHFLCYYYYGGMIYTGLKNFERALYFYEQAITTPAMAVSHIMLESYKKYILVSLILLGKVQQLPKYTSQIVGRFIKPLSNAYHELAQVYSTNNPSELRNLVNKHSETFTRDNNMGLVKQCLSSLYKKNIQRLTKTFLTLSLQDMASRVQLSGPQEAEKYVLHMIEDGEIFASINQKDGMVSFHDNPEKYNNPAMLHNIDQEMLKCIELDERLKAMDQEITVNPQFVQKSMGSQEDDSGNKPSSYS
notes: COP9 signalosome subunit 3 (CSN3), human; source: endogenous, HEK293 lysate
B2: COP9 signalosome subunit CSN1 (natural protein, human (endogenous in HEK293), UniProt Q13098 1-491, looked up)
chain: MPLPVQVFNLQGAVEPMQIDVDPQEDPQNAPDVNYVVENPSLDLEQYAASYSGLMRIERLQFIADHCPTLRVEALKMALSFVQRTFNVDMYEEIHRKLSEATRSSLRELQNAPDAIPESGVEPPALDTAWVEATRKKALLKLEKLDTDLKNYKGNSIKESIRRGHDDLGDHYLDCGDLSNALKCYSRARDYCTSAKHVINMCLNVIKVSVYLQNWSHVLSYVSKAESTPEIAEQRGERDSQTQAILTKLKCAAGLAELAARKYKQAAKCLLLASFDHCDFPELLSPSNVAIYGGLCALATFDRQELQRNVISSSSFKLFLELEPQVRDIIFKFYESKYASCLKMLDEMKDNLLLDMYLAPHVRTLYTQIRNRALIQYFSPYVSADMHRMAAAFNTTVAALEDELTQLILEGLISARVDSHSKILYARDVDQRSTTFEKSLLMGKEFQRRAKAMMLRAAVLRNQIHVKSPPREGSQGELTPANSQSRMSTNM
notes: COP9 signalosome subunit 1 (CSN1), human; source: endogenous, HEK293 lysate

How the values were obtained:
[1] = biological target: T1, COP9 signalosome subunit CSN8; assay: SEC; co-fractionation of native HEK293 lysate (freeze-thaw, 0.5% NP-40); Yarra-SEC-4000, 50 mM HEPES pH 7.5, 150 mM NaCl, 4°C; 81 fractions quantified by SWATH-MS; co-elution of protein profiles scored with CCprofiler (5% FDR) and by manual inspection; details: partners not purified
[2] = biological target: B1; assay: as above; details: partners not purified

stoichiometry N [1]	stoichiometry N [2]	Binder
1	–	B1
1	1	B2
